In ChEMBL document CHEMBL1641602, “Quinolones as HCV NS5B polymerase inhibitors” (Bioorg Med Chem Lett, 2011) one finds IC50 data, which are given here for one molecule.

A short description of this experiment: Inhibition of Hepatitis C virus 1b BK NS5B Cdelta21 polymerase by scintillation proximity assay. Also noted: species or system Hepatitis C virus (isolate BK). Summed up: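 Started with [3H]UTP, 1 µM UTP, 250 nM 5'-biotin-oligo(rU12), 0.8 µg/ml poly(rA). Stopped at 120 min with streptavidin SPA beads, tRNA and EDTA, then CsCl added before counting.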

With `CN1CCN(c2cc3c(cc2F)c(=O)c(C(=O)OCc2ccc(Cl)cc2)cn3Cc2ccc(S(C)(=O)=O)cc2)CC1`, half-maximal inhibition (IC50) required 16 nM.

One may read the IC50 as the concentration at which inhibition is half-maximal. Low readings indicate higher potency, high ones lower potency.
